Our source for the IC50 and Ki values is PMC6562952, “Experimental and Computational Study to Reveal the Potential of Non-Polar Constituents from Hizikia fusiformis as Dual Protein Tyrosine Phosphatase 1B and α-Glucosidase Inhibitors” (Marine Drugs, 2019).

Structures are written as SMILES. Read-outs that look alike come from different tables or passages of the source.

For assay [1], the target named is T1, truncated form of human recombinant PTP1B (amino acid 1-322) (Homo sapiens, UniProt P18031).
T1 sequence (P18031 1-322): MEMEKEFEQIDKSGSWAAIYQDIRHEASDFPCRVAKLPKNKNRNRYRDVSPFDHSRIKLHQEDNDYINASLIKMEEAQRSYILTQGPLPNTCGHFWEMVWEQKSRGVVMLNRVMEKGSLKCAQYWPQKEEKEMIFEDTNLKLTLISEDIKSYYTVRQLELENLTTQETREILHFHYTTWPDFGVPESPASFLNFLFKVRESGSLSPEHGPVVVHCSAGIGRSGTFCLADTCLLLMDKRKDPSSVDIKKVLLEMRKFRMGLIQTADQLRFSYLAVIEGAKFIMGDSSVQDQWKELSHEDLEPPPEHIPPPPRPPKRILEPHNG
Briefly: In vitro PTP1B inhibitory activity assay (pNPP substrate). The conditions noted are these: mean ± SD of triplicate experiments.

For the next assay, the target named is T2, PTP1B (Homo sapiens, UniProt P18031).
T2 sequence (P18031 1-322): T1 sequence (P18031 1-322)
Briefly: Enzyme kinetic analysis towards PTP1B (Lineweaver-Burk plot and secondary plots). The format is biochemical. As for the experimental part:
The inhibition constant (Ki) and inhibition mode for the inhibition of PTP1B was calculated by the Lineweaver-Burk plot and its secondary plot of the slope and the y-intercept of compounds [49, 50]. […] Graphs were generated using SigmaPlot 12.0 (Systat Software Inc., San Jose, CA, USA).

Consider `CC1(C)[C@@H](O)CC[C@]2(C)[C@H]3C(=O)C=C4[C@H]5C[C@@](C)(C(=O)O)CC[C@]5(C)CC[C@@]4(C)[C@]3(C)CC[C@@H]12` [Compound 22, 18α-glycyrrhetinic acid], for which the IC50 in assay [1] is 10.4 ± 0.75 µM. Besides, the Ki at PTP1B (secondary plot of slopes and y-intercept of Lineweaver-Burk plot, read-out: Enzyme Kinetics Ki (PTP1B inhibition constant)) came out at 3.17 µM.

Regarding `CC1(C)C2CC[C@]3(C)[C@H](C(=O)C=C4[C@@H]5C[C@@](C)(C(=O)O)CC[C@]5(C)CC[C@]43C)[C@@]2(C)CC[C@@H]1O` (stereo partly drawn) [Compound 23, 18β-glycyrrhetinic acid], in assay [1], the IC50 came out at 26.1 ± 0.59 µM. Further, the Ki at PTP1B (secondary plot of Km,app/Vmax,app (slope), read-out: Kic (binding constant of inhibitor with free enzyme)) is 10.2 µM.
